From patent US10183009B2, “Therapeutic compounds and uses thereof” (GENENTECH, INC., priority 2014, dated 2019)

Target: BRD4(BD1) (Homo sapiens (Human), UniProt O60885)
Assay: BRD4 AlphaLisa Binding Assay

Compound `C/C=C/Cn1cc(-c2cc(F)cc(C(N)=O)c2)c2cc[nH]c2c1=O` [Example 22, 3-[6-[(E)-but-2-enyl]-7-oxo-1H-pyrrolo[2,3-c]pyridin-4-yl]-5-fluoro-benzamide] has an IC50 of 3 µM.
Compound `C/C=C/Cn1cc(-c2cccc(C(=O)NC(C)C)c2)c2cc[nH]c2c1=O` [Example 35, 3-[6-[(E)-but-2-enyl]-7-oxo-1H-pyrrolo[2,3-c]pyridin-4-yl]-N-isopropyl-benzamide] has an IC50 of 0.72 µM.
